A549 viability: counter-screen for Nrf2 inhibitors: cytotoxicity in A549 cells; Potency, µM (top dose mostly 46 µM), actives largely listed as inhibitors; AID 504648; A549 ARE-Fluc cells, CellTiter-Fluor viability, 18-24 h; 0.16% of 390,000 active
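A549 ARE-Fluc cells in 5% FBS OPTI-MEM, 5000 cells/well, rested 2 h then exposed to compounds in concentration-response for 18-24 h at 37 °C. Viability by CellTiter-Fluor fluorescence (Ex 405/Em 525) after 30 min; luciferase luminescence (BugLite, 15 min, RT) read afterwards.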
Nrf2 block: inhibitors of Nrf2 signaling; 2.1% of 360,000 active; Potency, µM (highest dose often 46 µM), most hits filed as inhibitors; AID 504444; A549 ARE-Fluc reporter, luciferase luminescence, 18-24 h; also: nearly all actives have a fitted effect of over 60% in size
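Nrf2 activity is the BugLite luminescence, read 15 min after reagent at room temperature, following CellTiter-Fluor cytotoxicity readout (30 min, 37C). Compound titrations were applied for 18-24 h to 5000 A549 ARE_Fluc cells/well in 5% FBS OPTI-MEM.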
miR-21 reporter: raises the signal of a miR-21 reporter; HeLa miR-21 FLuc reporter, luciferase, 48 h; Potency, µM (top dose mostly 38.3 µM); AID 2288; 340,000 tested, under 10 active; active = well fitted rising curve with a large enough effect; inconclusive = small, poorly fitted or top-dose-only effect; inactive = no such curve, though single readings can be large or run the other way;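 note: miR-21 action dims this reporter so a rising signal means less miR-21 action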
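HeLa cells endogenously expressing miR-21, stably carrying CMV-driven firefly luciferase with a downstream miR-21 binding site, 2000 cells/well. Titrations up to approximately 40 uM, 48 hours; luciferase luminescence read.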
Mito fusion yeast: inhibitors of mitochondrial division or activators of mitochondrial fusion; S. cerevisiae fusion-defective mutant growth rescue, CellTiterGlo 48 h; Potency, µM (doses to about 46.1 µM), most hits filed as activators; 0.23% of 320,000 active; also: nearly all actives have a fitted effect of over 45% in size
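Luminescent cell viability in 1536-well qHTS format served as the measure of rescued growth in ts fusion-mutant S. cerevisiae cultured on non-fermentable YPEG for 48 hours at 37C.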
Nrf2 activator: Nrf2 pathway activation; AREc32 ARE-luciferase reporter (MCF7-derived line), luminescence, 24 h; Potency, µM (titrated, usually from 46.1 µM), usual class: activators; 0.31% of 410,000 active; AID 624171; also: nearly all actives have a fitted effect of over 65% in size
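ARE activation measured as luciferase luminescence (Steady-Glo, 30 min RT) in AREc32_Fluc cells after 24 hr compound exposure at 37 deg C, 5% CO2; cells seeded overnight at 1000/well in OPTI-MEM, 5% FBS.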
Large screens that a line does not name were inactive. The list is not random: actives were taken first. Their share in the collection is about 2.3%. Unless noted, calls follow the shape of the dose curve; as a rule, active = well fitted curve in the direction sought with a large enough effect; inconclusive = small, poorly fitted or top-dose-only effect, or another doubt; inactive = no such curve, though single readings can be large; an effect the other way counts as inactive or inconclusive.

COc1ccccc1-c1c(C)nn2c(N3CCCCCC3)cc(C)nc12	A549 viability inconclusive, Nrf2 block 26µM, miR-21 reporter inconclusive, Mito fusion yeast inconclusive
COc1ccccc1-c1c(C)nn2c(N3CCN(Cc4ccccc4)CC3)cc(C)nc12	Nrf2 block 23µM
CSCCC(NS(=O)(=O)c1ccc(Cl)cc1)C(=O)OCC(=O)c1c(C)[nH]c2ccccc12 (stereo unspecified)	A549 viability inconclusive, Nrf2 block 18µM, miR-21 reporter inconclusive
COc1cccc(N2C(=O)C(CC(=O)Nc3cccc(F)c3)N(C(C)C)C2=O)c1 (stereo unspecified)	Nrf2 block inconclusive (no result: Mito fusion yeast)
Cc1cc(Cl)ccc1OCC(=O)Nc1c(C(=O)c2ccccc2)oc2ccccc12	none (no result: Mito fusion yeast)
O=C(CSc1ccc(Cl)cc1)N/N=C/c1ccc([N+](=O)[O-])o1	A549 viability inconclusive, Nrf2 block 23µM
O=C(COc1ccccc1)N/N=C/c1ccc([N+](=O)[O-])o1	A549 viability inconclusive, Nrf2 block 13µM, miR-21 reporter inconclusive
Cc1ccccc1OCC(=O)N/N=C/c1ccccn1	none
O=C(CNc1ccc2ccccc2c1)N/N=C/c1ccc([N+](=O)[O-])o1	none
Cc1ccc(OCC(=O)N/N=C/c2ccc([N+](=O)[O-])o2)cc1	Nrf2 block 21µM
Cc1ccc(OCC(=O)N/N=C\c2ccc(C)o2)c([N+](=O)[O-])c1	none
O=C(COc1ccccc1[N+](=O)[O-])N/N=C/c1ccccn1	Nrf2 activator 11µM
Nc1ncc(-c2ccccc2)n1CC1CCCO1 (stereo unspecified)	Nrf2 block 16µM (no result: A549 viability)
O=C(CSc1ncc(-c2ccccc2)n1CC1CCCO1)N1CCCCC1 (stereo unspecified)	none
COc1ccc(OC)c(CCNC(=O)c2cc3c(-c4ccccc4F)nn(C)c3s2)c1	Nrf2 block 21µM, miR-21 reporter inconclusive (no result: Mito fusion yeast)
COc1ccc(NC(=O)c2cc3c(-c4ccccc4F)nn(C)c3s2)c(OC)c1	Nrf2 block inconclusive (no result: Mito fusion yeast)
COC(=O)c1ccc(NS(=O)(=O)c2cc3c4c(c2)CCN4C(=O)CC3)cc1	none (no result: miR-21 reporter)
COC(=O)c1ccc(NS(=O)(=O)c2cc3c4c(c2)CCC(=O)N4CCC3)cc1	Nrf2 block 23µM (no result: miR-21 reporter)
CC1(C)CC(=O)C2=C(C1)NC(Nc1nc3ccccc3o1)=NC2c1ccccc1Cl (stereo unspecified)	none (no result: miR-21 reporter, Mito fusion yeast, Nrf2 activator)
Cc1cc(Nc2ccc(Cl)cc2)nc(NCc2ccccc2)n1	A549 viability inconclusive, Nrf2 block 16µM, miR-21 reporter inconclusive
CCCCNc1cc(C)nc(NCc2ccccc2)n1	Nrf2 block 18µM
Cc1cc(Nc2ccccc2)nc(NCc2ccccc2)n1	miR-21 reporter inconclusive
CCn1ccc2cc(S(=O)(=O)N3CCCN(C(=O)NCC(C)C)CC3)ccc21	none (no result: Nrf2 block, Mito fusion yeast)
Cc1ccc[n+](CC(=O)c2ccc(Br)cc2)c1	Nrf2 block 23µM
CC(=O)Nc1ccc(S(=O)(=O)Nc2ccc(C)c([N+](=O)[O-])c2)cc1	Nrf2 block 26µM
CC(=O)Nc1ccc(NS(=O)(=O)c2cc([N+](=O)[O-])ccc2C)cc1	none
COc1ccc(-c2cc3ccccc3oc2=O)cc1NC(=O)c1ccc([N+](=O)[O-])o1	Nrf2 block inconclusive, Nrf2 activator 6.3µM
Cc1cccc(NS(=O)(=O)c2ccc(NC(=O)CN(c3cc([N+](=O)[O-])ccc3C)S(C)(=O)=O)cc2)c1	A549 viability inconclusive, Nrf2 block 18µM, miR-21 reporter inconclusive
COc1cc(NC(=O)c2cc3ccccc3cc2OC)ccc1NC(=O)c1cccs1	Nrf2 block 5.2µM
COc1cccc(N2CC(NC(=O)c3cc4ccccc4o3)CC2=O)c1 (stereo unspecified)	miR-21 reporter inconclusive (no result: Nrf2 block, Mito fusion yeast)
Cc1ccc(CNc2ncnc3nc[nH]c23)cc1	none (no result: miR-21 reporter, Mito fusion yeast, Nrf2 activator)
Cc1ccc(NC(=O)c2cccs2)cc1[N+](=O)[O-]	Nrf2 block inconclusive, Nrf2 activator 14µM
COc1cc(NC(=O)c2ccc([N+](=O)[O-])o2)ccc1NC(=O)c1cccs1	A549 viability 23µM, Nrf2 activator 11µM
O=C(Nc1cccc(NC(=O)c2cccs2)c1)c1ccc([N+](=O)[O-])o1	Nrf2 activator inconclusive
Cc1ccc(Cl)cc1N1CCN(C(=O)c2cnc(N3CCOCC3)c3ccccc23)CC1	miR-21 reporter inconclusive (no result: Nrf2 block, Mito fusion yeast)
Cc1cccc(C(=O)NCC(=O)NC2CCN(Cc3ccccc3)CC2)c1	none (no result: miR-21 reporter, Mito fusion yeast)
Cc1ccc(C(=O)NC2CCN(Cc3ccccc3)CC2)cc1S(=O)(=O)N1CCOCC1	Nrf2 block inconclusive (no result: miR-21 reporter)
COc1ccccc1NS(=O)(=O)c1cc(C(=O)NC2CCN(Cc3ccccc3)CC2)ccc1C	A549 viability inconclusive, Nrf2 block 5.8µM (no result: miR-21 reporter, Mito fusion yeast)
Cc1ccc(NS(=O)(=O)c2cccc(C(=O)NC3CCN(Cc4ccccc4)CC3)c2)c(C)c1	A549 viability inconclusive, Nrf2 block 21µM (no result: miR-21 reporter, Mito fusion yeast)
COc1ccccc1NS(=O)(=O)c1ccc(C)c(C(=O)NC2CCN(Cc3ccccc3)CC2)c1	Nrf2 block inconclusive (no result: miR-21 reporter)
O=C(NC1CCN(Cc2ccccc2)CC1)c1cccc(S(=O)(=O)Nc2ccc(F)cc2)c1	A549 viability inconclusive, Nrf2 block 16µM (no result: miR-21 reporter)
O=C(NC1CCN(Cc2ccccc2)CC1)c1cccc(S(=O)(=O)Nc2ccc(Br)cc2)c1	Nrf2 block inconclusive (no result: miR-21 reporter)
COc1ccc(NS(=O)(=O)c2ccc(C)c(C(=O)NC3CCN(Cc4ccccc4)CC3)c2)cc1	Nrf2 block 13µM
CC1CC(NC(=O)c2cc3c(=O)n4ccccc4nc3n2C)CC(C)(C)C1 (stereo unspecified)	Nrf2 block 21µM
CC1CCCCC1NC(=O)c1cc2c(=O)n3ccccc3nc2n1C (stereo unspecified)	Nrf2 block inconclusive, Mito fusion yeast inconclusive
CCc1ccc(CSc2nc(-c3ccccc3OC)nc3c2Cc2c(CO)cnc(C)c2O3)cc1	Nrf2 block inconclusive (no result: Mito fusion yeast)
Cc1ccc(S(=O)(=O)N2CCN(c3nc(-c4cccs4)nc4nc[nH]c34)CC2)cc1	none (no result: miR-21 reporter, Mito fusion yeast, Nrf2 activator)
COc1ccccc1N(/N=C1\Sc2ccccc2C1=O)C(C)=O	Nrf2 activator 14µM
O=C(Cc1cccs1)N/N=C/C=C/c1ccco1	Nrf2 activator 13µM
O=C(CN1CCN(Cc2ccccc2)CC1)N/N=C\C=C/c1ccco1	Nrf2 block inconclusive, Nrf2 activator 6.3µM
O=C(CNc1cccc2ccccc12)N/N=C/C=C/c1ccco1	Nrf2 activator inconclusive
O=C(N/N=C\C=C\c1ccco1)c1cncc(Br)c1	Nrf2 activator 13µM
CCCCNc1nc(C#N)nc(Nc2ccccc2)n1	none (no result: miR-21 reporter, Mito fusion yeast, Nrf2 activator)
O=C(Nc1nc(-c2ccco2)c(-c2ccco2)s1)c1c(F)cccc1Cl	Nrf2 block inconclusive, Mito fusion yeast 13µM (no result: miR-21 reporter)
O=C(Nc1nc(-c2ccco2)c(-c2ccco2)s1)c1ccc(F)cc1F	Nrf2 activator inconclusive (no result: miR-21 reporter)
Cc1ccc(S(=O)(=O)N2CCN(c3nc(-c4ccnnc4)nc4ccccc34)CC2)cc1	none (no result: miR-21 reporter, Mito fusion yeast, Nrf2 activator)
